Only a part of the results on these compounds is given; other tests are left out.
What was measured:
[1] = tested on: AOX1 promoter; experiment: intracellular hPINX1 protein production, Western blot analysis; details: SNP 800 nM; intracellular production in P. pastoris
Description: In another study performed under scope of the invention, human PINX1 (hPINX1) protein under AOX1 promoter control by adding SNP in 800 nM concentration was produced intracellularly with P. pastoris. According to Western blot analysis result of this study, it was seen that SNP induced hPINX1 protein production.

[2] = tested on: AOX1 promoter; experiment: heterologous gene expression analysis (FIG. 1); details: 800 nM sodium nitroprusside, comparison: methanol 0.5%
Description: FIG. 1 is efficiency analysis graphic of heterologous gene expression levels giving comparison of method of invention to control groups of different applications.
A. Growth culture containing methanol in 0.5% in volume
C. Growth culture containing glucose in 1% and 800 nM sodium nitroprusside
E. Growth culture containing glycerol in 1% and 800 nM sodium nitroprusside
G. Growth culture containing sorbitol in 1% and 800 nM sodium nitropusside
The most importantly, with use of SNP, much higher protein production can be achieved in comparison to methanol induction.

[3] = tested on: AOX1 promoter; experiment: extracellular recombinant prepromelittin protein production; details: SNP as inducer at 200, 400, 600 and 800 nanomoles; sorbitol as carbon source; recombinant P. pastoris cells
Text: In a study conducted under scope of the invention, to produce recombinant protein, recombinant P. pastoris cells (constructed in our laboratory) carrying “prepromelittin protein” gene of Apis mellifera (honey bee) in its genome and producing extracellularly this protein were used.

Substance: sodium nitroprusside
- hPINX1 protein production under AOX1 promoter control (Western blot) [1]: induced hPINX1 protein production
- heterologous gene expression level with SNP induction compared to only methanol induction ([2]; in the presence of glycerol (1%), p>0.05): no significant difference
- heterologous gene expression level with SNP induction compared to only methanol induction ([2]; in the presence of sorbitol (1%)): higher gene expression level
- extracellular protein production (prepromelittin of Apis mellifera) [3]: extracellular protein production was achieved

— patent US20220220491A1
